Curated experimental data: fraction unbound values

Values as listed in the OPERA 2.9 repository of K. Mansouri.

fu is the fraction unbound in human plasma, from 0 to 1.

The entry for Oc1ccc2c(c1)-c1ccccc1C2 lists fraction unbound 0.02488. COc1cc(C2c3cc4c(cc3C(OC3OC5COC(C)OC5C(O)C3N(C)C)C3COC(=O)C23)OCO4)cc(OC)c1O.Cl (stereo unspecified) has fraction unbound 0.0125. COc1cc(NCc2ccc3nc(N)nc(N)c3c2C)cc(OC)c1OC is reported with fraction unbound 0.045. The entry for CC[C@@H](c1ccc(C(=O)O)c(Oc2cccc(Cl)c2)c1)N1CCC[C@H](n2cc(C)c(=O)[nH]c2=O)C1 lists fraction unbound 0.02618. The entry for CC1=C(C)S(=O)(=O)CCS1(=O)=O lists fraction unbound 0.937. For C#C[C@]1(O)CC[C@H]2[C@@H]3CCC4=CC(=O)CC[C@@H]4[C@H]3CC[C@@]21C the data give fraction unbound 0.1258.

CN(C)CCOC1=Cc2ccccc2Sc2ccc(Cl)cc21 is reported with fraction unbound 0.03. O.Cl.Cl.CN1CCc2cccc3-c4c(C[C@@H]1c23)ccc(O)c4O.CN1CCc2cccc3-c4c(C[C@@H]1c23)ccc(O)c4O has fraction unbound 0.09818. CCOC(=O)c1ccc(O)cc1 is reported with fraction unbound 0.1057. CN(C)CC(c1ccc(O)cc1)C1(O)CCCCC1 (stereo unspecified) is reported with fraction unbound 0.7. Listed for C[C@H](O)C(=O)Nc1c(I)c(C(=O)NC(CO)CO)c(I)c(C(=O)NC(CO)CO)c1I: fraction unbound 0.9988. The entry for CC(CCC(O)=O)(c1ccc(O)cc1)c1ccc(O)cc1 lists fraction unbound 0.163.

COC1=C(OC)C(=O)C(CCCCCCCCCCO)=C(C)C1=O is reported with fraction unbound 0.1. For CCC(=O)O[C@]1(C(=O)SCF)[C@H](C)C[C@H]2[C@@H]3C[C@H](F)C4=CC(=O)C=C[C@]4(C)[C@@]3(F)[C@@H](O)C[C@@]21C the data give fraction unbound 0.04478. CN1CCN(CCCN2c3ccccc3Sc3ccc(C(F)(F)F)cc32)CC1 has fraction unbound 0.007794. The entry for N[C@@H](C(=O)N[C@@H]1C(=O)N2C(C(=O)O)=C(Cl)CS[C@H]12)c1ccccc1 lists fraction unbound 0.75. Listed for CN(C)c1ccc(C(=C2C=CC(=[N+](C)C)C=C2)c2ccc(N(C)C)cc2)cc1.[Cl-]: fraction unbound 0.01384. Listed for C=CC[N@@+]12CC[C@@]34c5ccccc5N5C=C6[C@H]7C[C@H]8[C@@]9(CC[N@@+]8(CC=C)C/C7=C/CO)c7ccccc7N(C=C([C@@H](C[C@@H]31)/C(=C\CO)C2)[C@H]54)[C@@H]69: fraction unbound 0.6.

For CCC(Cc1c(I)cc(I)c(N)c1I)C(=O)O (stereo unspecified) the data give fraction unbound 0.21. For O=c1[nH]c(-c2ccc(C(F)(F)F)cc2)nc2c1CSCC2 the data give fraction unbound 0.024. The entry for CNCC[C@H](Oc1cccc2ccccc12)c1cccs1 lists fraction unbound 0.1. NC(=O)C1CO1 (stereo unspecified) is reported with fraction unbound 0.98. The entry for CCOC(=O)[C@H](CCc1ccccc1)N[C@H]1CCc2ccccc2N(CC(=O)O)C1=O lists fraction unbound 0.04045. CCNC(=O)[C@@H]1CCCN1C(=O)[C@H](CCCNC(=N)N)NC(=O)[C@H](CC(C)C)NC(=O)[C@@H](CC(C)C)NC(=O)[C@H](Cc1ccc(O)cc1)NC(=O)[C@H](CO)NC(=O)[C@H](Cc1c[nH]c2ccccc12)NC(=O)[C@H](Cc1c[nH]cn1)NC(=O)[C@@H]1CCC(=O)N1 is reported with fraction unbound 0.54.

For Cc1cn([C@H]2CCCN([C@H](CC(C)(C)C)c3ccc(C(=O)O)c(Oc4cccc(Br)c4)c3)C2)c(=O)[nH]c1=O the data give fraction unbound 0.01686. For N#C[C@@H]1CC(F)(F)CN1C(=O)CNC1CC2CCC(C1)N2c1ncccn1 (some centres not stated) the data give fraction unbound 0.702. CC(=O)O[C@H]1C[C@H](O[C@H]2[C@@H](O)C[C@H](O[C@H]3[C@@H](O)C[C@H](O[C@H]4CC[C@@]5(C)[C@H](CC[C@H]6[C@H]5CC[C@]5(C)[C@@H](C7=CC(=O)OC7)CC[C@]65O)C4)O[C@@H]3C)O[C@@H]2C)O[C@H](C)[C@H]1O has fraction unbound 0.2. Listed for COc1cc(/C=C/C(=O)O)ccc1O: fraction unbound 0.2688. CNCCCCOc1ccccc1Cc1ccccc1 has fraction unbound 0.05. Listed for CC(C)OC(=O)OCOP(=O)(CO[C@H](C)Cn1cnc2c(N)ncnc21)OCOC(=O)OC(C)C: fraction unbound 0.93.

Listed for Nc1nc(NC2CC2)c2ncn([C@@H]3C=C[C@@H](CO)C3)c2n1: fraction unbound 0.5. CC/C(=C(/CC)c1ccc(O)cc1)c1ccc(O)cc1 is reported with fraction unbound 0.004675. The entry for Cc1ccc(S(=O)(=O)Nc2c(C(=O)N[C@H](C)C(C)(C)C)c(C)nn2-c2ccccc2)cc1 lists fraction unbound 0.0111. For COc1ccc2cc1Oc1cc3c(cc1OC)CC[N+](C)(C)[C@H]3Cc1ccc(cc1)Oc1c(OC)c(OC)cc3c1[C@@H](C2)[N+](C)(C)CC3 the data give fraction unbound 0.65. The entry for C1CCC(C(CC2CCCCN2)C2CCCCC2)CC1 (stereo unspecified) lists fraction unbound 0.0395. Cl.O=C(c1ccc(OCCN2CCCCC2)cc1)c1c(-c2ccc(O)cc2)sc2cc(O)ccc12 has fraction unbound 0.0129.

CN1CCOC(c2ccccc2)c2ccccc2C1 (stereo unspecified) has fraction unbound 0.27. For CN(C)C(=O)CCSC(SCCC(=O)O)c1cccc(/C=C/c2ccc3ccc(Cl)cc3n2)c1 (stereo partly drawn) the data give fraction unbound 0.0034. C=C(CC(=O)c1ccc(-c2ccccc2Cl)cc1)C(=O)O is reported with fraction unbound 0.0175. Listed for CC(=O)S[C@@H]1CC2=CC(=O)CC[C@]2(C)[C@H]2CC[C@@]3(C)[C@@H](CC[C@@]34CCC(=O)O4)[C@H]12: fraction unbound 0.1201. For CC1(C)S[C@@H]2[C@H](NC(=O)[C@@H](NC(=O)N3CCNC3=O)c3ccccc3)C(=O)N2[C@H]1C(=O)O the data give fraction unbound 0.665. NC(=O)Cc1cccc(C(=O)c2ccccc2)c1N is reported with fraction unbound 0.009.

NC(=O)N1c2ccccc2CC(=O)c2ccccc21 has fraction unbound 0.55. COc1ccc2ncc(=O)n(CCN3CC[C@@H](NCc4ccc5c(n4)NC(=O)CO5)[C@H](OC)C3)c2c1 has fraction unbound 0.2242. Listed for CC(CN(C)C)CN1c2ccccc2Sc2ccccc21 (stereo unspecified): fraction unbound 0.15. CN(C)[C@@H]1C(O)=C(C(=O)NCN[C@@H](CCCCN)C(=O)O)C(=O)[C@@]2(O)C(O)=C3C(=O)c4c(O)cccc4[C@@](C)(O)C3C[C@@H]12 (stereo partly drawn) is reported with fraction unbound 0.55.

A selection of 7 entries from above:

| structure (SMILES) | fraction unbound |
|---|---|
| COc1cc(/C=C/C(=O)O)ccc1O | 0.2688 |
| CN(C)CCOC1=Cc2ccccc2Sc2ccc(Cl)cc21 | 0.03 |
| CN(C)C(=O)CCSC(SCCC(=O)O)c1cccc(/C=C/c2ccc3ccc(Cl)cc3n2)c1 (stereo partly drawn) | 0.0034 |
| CC(C)OC(=O)OCOP(=O)(CO[C@H](C)Cn1cnc2c(N)ncnc21)OCOC(=O)OC(C)C | 0.93 |
| C=C(CC(=O)c1ccc(-c2ccccc2Cl)cc1)C(=O)O | 0.0175 |
| C1CCC(C(CC2CCCCN2)C2CCCCC2)CC1 (stereo unspecified) | 0.0395 |
| CN(C)CC(c1ccc(O)cc1)C1(O)CCCCC1 (stereo unspecified) | 0.7 |

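These are experimental values that the OPERA curators gathered from public databases to train and test their QSAR models. One number stands for a compound and property, with no spread given. How each value was measured is not recorded, so precision varies. The measured form (salt, isomer or mixture) is not always the one drawn. Some upstream entries may be estimates or bounds without being marked so.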